From patent publication US20060094693A1, “Methods and compositions for treating glucose-associated conditions, metabolic syndrome, dyslipidemias and other conditions” (Point Therapeutics, Inc., priority 2004, published 2006)

Chains of the proteins cited; added tags and fusions are not shown. Residues count along the entry.
UniProt P27487, 39-766 limits assumed: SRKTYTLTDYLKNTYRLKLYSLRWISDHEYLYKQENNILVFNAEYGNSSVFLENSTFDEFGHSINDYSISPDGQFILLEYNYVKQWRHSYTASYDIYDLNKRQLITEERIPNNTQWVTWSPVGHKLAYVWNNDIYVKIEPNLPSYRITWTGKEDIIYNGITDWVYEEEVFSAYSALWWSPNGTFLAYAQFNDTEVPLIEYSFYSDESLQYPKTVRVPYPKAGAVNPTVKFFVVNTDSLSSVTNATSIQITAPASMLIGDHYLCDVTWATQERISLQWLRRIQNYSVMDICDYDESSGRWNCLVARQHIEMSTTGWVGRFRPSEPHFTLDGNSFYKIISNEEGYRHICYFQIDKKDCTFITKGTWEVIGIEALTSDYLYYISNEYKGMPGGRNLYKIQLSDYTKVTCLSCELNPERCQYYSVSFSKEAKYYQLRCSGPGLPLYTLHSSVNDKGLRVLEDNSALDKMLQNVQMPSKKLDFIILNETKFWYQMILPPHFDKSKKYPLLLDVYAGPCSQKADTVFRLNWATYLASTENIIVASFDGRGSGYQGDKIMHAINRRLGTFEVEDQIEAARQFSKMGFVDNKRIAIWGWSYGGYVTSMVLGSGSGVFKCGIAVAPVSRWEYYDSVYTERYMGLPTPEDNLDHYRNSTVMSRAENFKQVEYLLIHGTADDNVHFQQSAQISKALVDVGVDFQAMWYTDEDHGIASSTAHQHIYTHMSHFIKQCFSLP

Molecular target: T1, soluble recombinant human DPP-IV (Homo sapiens, UniProt P27487)
T1 construct: immunoglobulin kappa light chain secretion signal (pSecTag2-B) (N, cleaved yes); made in house; host or cells: 293T cells, transient transfection; unpurified culture supernatant used
Assay: In vitro assay of enzymatic activity of recombinant soluble DPP-IV and inhibition by amino boronic dipeptides
Assay type: biochemical
Settings: assayed 3 minutes, 78 minutes and 16 hours after addition of Ala-Pro-AFC
Text: Production of soluble recombinant human DPP-IV. Based on information on the N-terminus of serum DPP-IV (15), a truncated DPP-IV was engineered in which a signal/leader sequence was joined to the residue in DPP-IV corresponding to the N-terminus of serum DPP-IV to allow secretion. The cDNA encoding the desired truncated human DPP-IV dimer enzyme was engineered into the mammalian secretion vector pSecTag2 (Cat# V900-20, InVitrogen Corporation). The vector, available in A, B or C versions, representing three possible phases for gene fusion, contained an immunoglobulin-kappa light chain secretion signal followed by a selection of restriction sites for gene insertion. […]
In vitro assay of enzmatic activity ofrecombinant soluble DPP-IV and inhibition by amino boronic dipeptides. […] The reaction mixture was incubated at room temperature, and production of the fluorescent AFC product was measured in a fluorometer (excitation, 400 nm; emission 505 nm), either by continuous monitoring or after termination with a one to one-tenth volume of 1 -M sodium acetate, pH 4.5. Fluorometric reading were made with a Molecular Dynamics Spectra Max GeminiXS capable of reading 96-well microtiter plates. […]

Structure (SMILES): CC(C)[C@H](N)C(=O)N1CCC[C@H]1B(O)O [Val-boroPro]
- persistence of DPP-IV inhibition after preincubation: sustained DPP-IV inhibition
